According to ChEMBL document CHEMBL6109067, “Isolation, synthesis and structure-activity relationships of gallotannin derivatives as cathepsin C inhibitor” (Bioorg Med Chem Lett, 2025):

Target: T1, Neutrophil elastase (Homo sapiens, UniProt P08246)
T1 sequence (P08246 whole entry): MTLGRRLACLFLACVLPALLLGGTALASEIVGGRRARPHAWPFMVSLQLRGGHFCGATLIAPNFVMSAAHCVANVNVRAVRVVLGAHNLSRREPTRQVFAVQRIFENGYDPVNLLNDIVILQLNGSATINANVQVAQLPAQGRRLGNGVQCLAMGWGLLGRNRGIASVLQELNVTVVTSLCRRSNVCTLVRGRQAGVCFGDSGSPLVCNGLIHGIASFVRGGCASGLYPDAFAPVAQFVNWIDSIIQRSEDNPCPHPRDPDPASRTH
Assay: Inhibition of human neutrophil elastase (unknown origin)

IC50: 54.1 µM
SMILES: CC(C)(C)C(=O)Oc1ccc(S(=O)(=O)Nc2ccccc2C(=O)NCC(=O)O)cc1
